Target: 5HT2A (Homo sapiens, UniProt P28223)
Experiment: Human 5HT2A inhibition assay (FLIPR calcium 6, 5HT stimulus, stably transfected HEK293 cells)
Type: cell-based

Sequences of proteins named here, by UniProt entry; tags and fusion partners are left off.
UniProt P28223, whole entry: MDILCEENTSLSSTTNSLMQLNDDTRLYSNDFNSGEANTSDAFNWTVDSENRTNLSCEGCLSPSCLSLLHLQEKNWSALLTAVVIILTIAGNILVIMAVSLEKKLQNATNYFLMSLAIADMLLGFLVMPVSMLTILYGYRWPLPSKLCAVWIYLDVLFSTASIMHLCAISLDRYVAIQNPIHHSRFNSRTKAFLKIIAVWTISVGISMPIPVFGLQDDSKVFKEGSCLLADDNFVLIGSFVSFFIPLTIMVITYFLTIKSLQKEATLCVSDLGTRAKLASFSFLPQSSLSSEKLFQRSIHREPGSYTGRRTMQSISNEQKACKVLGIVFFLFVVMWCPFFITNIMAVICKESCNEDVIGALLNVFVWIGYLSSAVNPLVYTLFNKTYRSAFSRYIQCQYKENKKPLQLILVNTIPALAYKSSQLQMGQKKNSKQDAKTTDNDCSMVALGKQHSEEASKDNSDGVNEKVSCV

IC50: 0.0677 µM
IC50 (nM): less potency than compound 11c
SMILES: Cc1ccc2c(c1)CCc1cccnc1C2=C1CCN(CCc2c(C)nc3n(c2=O)CCCC3O)CC1 (centres unmarked)

From PMC10799935, “Discovery of a peripheral 5HT2A antagonist as a clinical candidate for metabolic dysfunction-associated steatohepatitis” (Nature Communications, 2024)
